Experimental data from publication PMC8305652, “Copper(II) Complexes Containing Natural Flavonoid Pomiferin Show Considerable In Vitro Cytotoxicity and Anti-inflammatory Effects” (International Journal of Molecular Sciences, 2021).

Tests used:
osteosarcoma (HOS) = experiment: in vitro cytotoxicity, MTT assay; type: cell-based, human; settings: mean ± SD, at least three independent experiments
Method: The testing was performed on the following human cancer cell lines: breast adenocarcinoma (MCF-7), osteosarcoma (HOS), lung adenocarcinoma (A549), prostate adenocarcinoma (PC-3), ovarian carcinoma (A2780), cisplatin-resistant ovarian carcinoma (A2780R) and colorectal adenocarcinoma (Caco-2) obtained from ATCC collection of cell lines and cultivated according to producer’s instructions.

[1] = test system: colorectal adenocarcinoma (Caco-2); experiment: in vitro cytotoxicity, MTT assay; type: cell-based, human; settings: mean ± SD, at least three independent experiments

| Molecule | IC50 (osteosarcoma (HOS)) | IC50 [1] |
| --- | --- | --- |
| CC(C)=CCc1c2c(c3occ(-c4ccc(O)c(O)c4)c(=O)c3c1[O-])C=CC(C)(C)O2.CO.O=[N+]([O-])[O-].[Cu+2].c1ccc(-c2ccnc3c2ccc2c(-c4ccccc4)ccnc23)cc1 [Complex 4, (3-(3,4-dihydroxyphenyl)-8,8-dimethyl-6-(3-methylbut-2-en-1-yl)-4H,8H-benzo[1,2-b:3,4-b′]dipyran-4-one-5-olato-κ^2O4:O5)(4,7-diphenyl-1,10-phenanthroline–κ^2N:N)copper(II) nitrate methanol solvate] | 2600 ± 500 nM |  |
| (3-(3,4-dihydroxyphenyl)-8,8-dimethyl-6-(3-methylbut-2-en-1-yl)-4H,8H-benzo[1,2-b:3,4-b′]dipyran-4-one-5-olato-κ^2O4:O5)(dipyrido[3,2-a:2′,3′-c]phenazine–κ^2N4:N5)copper(II) nitrate methanol solvate [Complex 5] |  | 2600 ± 1600 nM |
